Source: PubChem BioAssay AID720702 (The Scripps Research Institute Molecular Screening Center, 2013)
Only a part is listed here, and it is no random draw. Some structures show a salt or complex split into parts, the way the source records it. Calls of active or inactive are those of the source.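 The calls were made as follows: active = inhibition above the mean of all tested compounds plus 3 SD, set per campaign (cut at about 25% in these data); inactive = the rest.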

Protein sequences, listed by entry. Tags and fused reporters are not part of them.
UniProt O95551, whole entry: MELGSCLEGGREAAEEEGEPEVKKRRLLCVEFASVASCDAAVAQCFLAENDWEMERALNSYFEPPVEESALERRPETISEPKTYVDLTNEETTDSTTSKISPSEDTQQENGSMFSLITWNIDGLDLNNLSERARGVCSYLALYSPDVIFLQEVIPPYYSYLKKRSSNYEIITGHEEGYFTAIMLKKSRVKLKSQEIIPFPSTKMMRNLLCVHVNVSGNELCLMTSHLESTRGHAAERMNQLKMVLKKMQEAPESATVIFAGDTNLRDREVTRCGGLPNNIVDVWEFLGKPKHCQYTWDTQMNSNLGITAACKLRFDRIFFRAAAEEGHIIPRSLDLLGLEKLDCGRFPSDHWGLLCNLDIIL

Molecular target: Tyrosyl-DNA phosphodiesterase 2 (Homo sapiens) (UniProt O95551)
Test: human TDP2 enzyme inhibitors, primary screen, biochemical, epi absorbance, recombinant enzyme (AID 720702);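 also: 0% = DMSO with enzyme and 100% = buffer with substrate but no TDP2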
Conditions: recombinant TDP2, T5PNP hydrolysis, p-nitrophenol absorbance 415 nm; at 12.8 µM; hits give high values
Method in brief: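 Evaluation: % inhibition relative to enzyme-containing and enzyme-free wells. Material: recombinant human TDP2. Benchmarks: enzyme-free and DMSO wells. Timing: enzyme reaction with compound for 2 h at 37 °C. Compound dosing: 12.8 µM only. Measured by: p-Nitrophenol epi absorbance. Reagent: T5PNP substrate at 5 mM, a TopII-DNA adduct mimic. Replication: single well per compound.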

Row | SMILES | inhibition
1 | CCOC(=O)c1ccc(NP(C)(=O)Oc2ccc(F)cc2)cc1 (configuration not stated) | inactive: 5.1%
2 | COc1ccc(OP(C)(=O)Nc2ccc(SC(F)(F)F)cc2)cc1 (configuration not stated) | inactive: 2.62%
3 | CCN(CC)CCCNc1ccccc1[N+](=O)[O-].O=[N+]([O-])c1cc([N+](=O)[O-])c(O)c([N+](=O)[O-])c1 | inactive: -12.1%
4 | CP(=O)(Nc1ccccc1)Oc1ccc(F)cc1 (configuration not stated) | inactive: 7.31%
5 | O=[N+]([O-])c1cc([N+](=O)[O-])c(OC2CCCCC2O)c([N+](=O)[O-])c1 (configuration not stated) | inactive: 0.29%
6 | CCCCCOc1ccc(NP(C)(=O)Oc2ccc(Cl)cc2Cl)cc1 (configuration not stated) | inactive: 7.31%
7 | Cc1c([N+](=O)[O-])cc([N+](=O)[O-])c(Br)c1[N+](=O)[O-] | inactive: -12.5%
8 | CCN(CC)CCCOC(=O)C(O)(c1ccccc1)C1CCCCC1 (configuration not stated) | inactive: -4.46%
9 | CP(=O)(Nc1ccccc1F)Oc1ccccc1 (configuration not stated) | inactive: -11.4%
10 | CC(C)c1ccc(OP(C)(=O)Nc2ccc(SC(F)(F)F)cc2)cc1 (configuration not stated) | inactive: -5.12%
11 | O=[N+]([O-])c1cc([N+](=O)[O-])c(Nc2ccc(Cl)cc2)c([N+](=O)[O-])c1 | inactive: -6%
12 | COc1ccc2c(c1O)-c1c(O)c(OC)cc3c1[C@H](C2)[N+](C)(C)CC3.O=[N+]([O-])c1cc([N+](=O)[O-])c([O-])c([N+](=O)[O-])c1[O-] | inactive: 1.96%
13 | O=C(OC1CN2CCC1CC2)c1ccc([N+](=O)[O-])cc1 (configuration not stated) | inactive: -11.4%
14 | O=C(OCCN1CCN(CCOCc2ccccc2)CC1)C(O)(c1ccccc1)c1ccccc1 | inactive: 9.71%
15 | COc1ccc(OP(C)(=O)Nc2ccccn2)cc1 (configuration not stated) | inactive: -3.09%
16 | CN(C)CCOC(=O)C(O)(c1ccccc1)C1CCCC1 (configuration not stated) | inactive: -8.58%
17 | COc1ccccc1OP(C)(=O)Nc1ccc(Br)cc1 (configuration not stated) | inactive: -6.12%
18 | COc1ccccc1OP(C)(=O)Nc1ccc(C)cc1C (configuration not stated) | inactive: 2.99%
19 | CP(=O)(Nc1ccccn1)Oc1ccccc1 (configuration not stated) | inactive: -6.82%
20 | CCc1ccc(OP(C)(=O)O)cc1 | inactive: 1.32%
21 | O=[N+]([O-])c1cc([N+](=O)[O-])c(Nc2ccccn2)c([N+](=O)[O-])c1 | inactive: 7.17%

Row | SMILES | inhibition
22 | Cc1c(NP(C)(=O)Oc2ccc(C(C)C)cc2)c(=O)n(-c2ccccc2)n1C (configuration not stated) | inactive: 2.19%
23 | COc1ccccc1OP(C)(=O)Nc1ccc(C)c(C)c1 (configuration not stated) | inactive: 3.66%
24 | COc1ccc(OP(C)(=O)Nc2ccccc2Br)cc1 (configuration not stated) | inactive: 7.19%
25 | Cc1cc(C)cc(OP(C)(=O)Nc2cccc(C(F)(F)F)c2)c1 (configuration not stated) | inactive: -0.7%
26 | O=C1C(O)=C([N+](=O)[O-])C(=O)C(O)=C1[N+](=O)[O-] | inactive: 1.21%
27 | CP(=O)(OCCOc1ccccc1)OCCOc1ccccc1 | inactive: -12.6%
28 | CP(=O)(Nc1ccc(Cl)cc1Cl)Oc1ccccc1 (configuration not stated) | inactive: -9.65%
29 | CCCCCCCCCCCCCCCC1C[N+](C)(C)CCOP(C)(=O)O1 (configuration not stated) | inactive: -9.49%
30 | CCOC(=O)c1ccc(NP(C)(=O)Oc2ccc(Cl)cc2)cc1 (configuration not stated) | inactive: 0.09%
31 | CP(=O)(OC12CC3CC(CC(C3)C1)C2)OC12CC3CC(CC(C3)C1)C2 | inactive: -0.29%
32 | Nc1ccc2c(ccc3cccnc32)n1.O=[N+]([O-])c1cc([N+](=O)[O-])c(O)c([N+](=O)[O-])c1 | inactive: 13.8%
33 | O=C(OCCCN1CCCC1)C(O)(c1ccccc1)C1CCCCC1 (configuration not stated) | inactive: 0.08%
34 | COc1ccccc1OP(C)(=O)Nc1c(C)n(C)n(-c2ccccc2)c1=O (configuration not stated) | inactive: 10.8%
35 | CCc1ccc(OP(C)(=O)Nc2cccnc2)cc1 (configuration not stated) | inactive: 0.97%
36 | CP(=O)(Oc1ccccc1)N1CCOC1=O (configuration not stated) | inactive: 9.05%
37 | COc1ccc(OP(C)(=O)Nc2ccc(Br)cc2)cc1 (configuration not stated) | inactive: -4.56%
38 | CCN(CC)CC(O)COC(=O)C(O)(c1ccccc1)C1CCCCC1 (configuration not stated) | inactive: 1.59%
39 | CN(C)C(=O)c1c([N+](=O)[O-])cc([N+](=O)[O-])cc1[N+](=O)[O-] | inactive: 3.74%
40 | CC(C)(C)c1ccc(OP(C)(=O)O)cc1 | inactive: -12.9%
41 | COc1ccccc1OP(C)(=O)Nc1ccccc1Br (configuration not stated) | inactive: -4.5%
42 | CP(=O)(Nc1ccc(Cl)cc1)Oc1ccc(F)cc1 (configuration not stated) | inactive: -8.4%
